Test system: recombinant HIV-1 RT
Assay: colorimetric Reverse Transcriptase Assay
Format: biochemical
Settings: RT IC50 relative to best inhibitor (NBD-14189)

`CC1(C)CC(NC(=O)C(=O)Nc2ccc(Cl)cc2)CC(C)(C)N1` [NBD-556, reference compound] was tested, and the “Fold-change from best inhibitor (IC50)” value was >133.

Reference: publication PMC10655131 (Journal of medicinal chemistry, 2021)
